Experimental data taken from PMC3798018 (Nature chemical biology, 2009).

Protein sequences, listed by entry. Tags and fused reporters are not part of them. Lines headed by an entry give the natural chain unless they say otherwise; changes in a name come on top.
UniProt O14939: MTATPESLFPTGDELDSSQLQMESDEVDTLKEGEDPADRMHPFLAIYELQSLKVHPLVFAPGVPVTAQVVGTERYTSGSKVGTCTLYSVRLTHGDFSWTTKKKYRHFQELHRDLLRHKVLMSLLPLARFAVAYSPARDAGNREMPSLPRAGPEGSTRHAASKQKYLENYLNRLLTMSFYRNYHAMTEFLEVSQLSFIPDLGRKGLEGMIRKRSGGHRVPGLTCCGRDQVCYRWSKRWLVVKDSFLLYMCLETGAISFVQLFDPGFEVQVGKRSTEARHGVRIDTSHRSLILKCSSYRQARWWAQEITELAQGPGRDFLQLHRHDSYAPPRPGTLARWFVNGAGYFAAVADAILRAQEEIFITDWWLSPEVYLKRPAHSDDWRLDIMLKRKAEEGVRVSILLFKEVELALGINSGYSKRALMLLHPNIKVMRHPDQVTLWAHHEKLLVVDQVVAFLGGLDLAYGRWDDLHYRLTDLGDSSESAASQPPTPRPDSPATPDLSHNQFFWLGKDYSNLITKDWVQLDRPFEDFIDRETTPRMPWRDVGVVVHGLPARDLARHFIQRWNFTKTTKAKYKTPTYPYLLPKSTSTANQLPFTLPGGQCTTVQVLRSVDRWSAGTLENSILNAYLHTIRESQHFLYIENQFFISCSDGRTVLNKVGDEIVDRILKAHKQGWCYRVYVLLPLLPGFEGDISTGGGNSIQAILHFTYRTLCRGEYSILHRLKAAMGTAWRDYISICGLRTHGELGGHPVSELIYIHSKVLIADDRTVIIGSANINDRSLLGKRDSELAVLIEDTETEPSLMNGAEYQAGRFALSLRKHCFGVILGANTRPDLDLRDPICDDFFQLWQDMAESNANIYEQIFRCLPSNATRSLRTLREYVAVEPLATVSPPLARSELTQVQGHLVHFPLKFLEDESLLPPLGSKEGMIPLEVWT

Biological target: human PLD2 (Homo sapiens, UniProt O14939)
Assay: In vitro exogenous substrate PLD activity assay, myr-Arf-1-stimulated hPLD2
Format: biochemical
Conditions: in vitro enzyme assay

O=C(NCCN1CCC2(CC1)C(=O)NCN2c1ccccc1)c1ccc2ccccc2c1 [Compound 72]
Preference for inhibition of PLD2 over PLD1, difference in in vitro IC50 values: approximately 40 fold
